As a reminder, the Ki is the equilibrium dissociation constant of an inhibitor or competing ligand from its target. Read a high Ki as weaker binding.

The test addresses Suppressor of tumorigenicity 14 protein (Homo sapiens, UniProt Q9Y5Y6).

`CCOC(=O)N1CCN(C(=O)[C@H](Cc2cccc(C(=N)N)c2)NS(=O)(=O)c2c(C(C)C)cc(C(C)C)cc2C(C)C)CC1` gave a Ki of 320 nM.
The same measure for `CC(C)c1cc(C(C)C)c(S(=O)(=O)N[C@@H](Cc2cccc(C(=N)N)c2)C(=O)N2CCN(C(=O)C3CCN(C(=N)N)CC3)CC2)c(C(C)C)c1`: 14 nM.
